Laboratory results from US7374891B2, “Methods to identify compounds that modulate rage” (TransTech Pharma, Inc., priority 2000, dated 2008).

System: RAGE (S-100b/RAGE interaction in C6 glioma cells)
Experiment: pNF-κB-Luc luciferase reporter assay in C6 glioma cells expressing high levels of RAGE
Settings: read-out: IC50, inhibition of S-100b/RAGE interaction in C6 glioma cells; NF-κB luciferase reporter, FIG. 14; tested form: 2HCl

IC50: 3.3 µM
SMILES: CCCCOc1cc(C(=O)OCCN(CC)CC)ccc1NC(=O)[C@H](N)Cc1ccc2ccccc2c1
